Data on one molecule can be found in paper PMC6747225 (International Journal of Environmental Research and Public …, 2019).

Data set [1] has as its system catalase (CAT). The settings on record: liver; SER alone 5 μg·L^−1 compared to control; seven days.
In data set [2] the test system is glutathione S-transferase (GST). To be noted: liver; SER alone 5 μg·L^−1 compared to control; seven days.

For the molecule `CN[C@H]1CC[C@@H](c2ccc(Cl)c(Cl)c2)c2ccccc21` [SER, sertraline], the CAT activity entry in data set [1] is “significant induction”. Besides, the GST activity result in data set [2] is on record as “not significantly changed”.
